From patent US7470703B1 (priority 2004, dated 2008) come the findings set out here.

By UniProt entry, the sequences of proteins in these tests, tags left out.
UniProt P35368, whole entry: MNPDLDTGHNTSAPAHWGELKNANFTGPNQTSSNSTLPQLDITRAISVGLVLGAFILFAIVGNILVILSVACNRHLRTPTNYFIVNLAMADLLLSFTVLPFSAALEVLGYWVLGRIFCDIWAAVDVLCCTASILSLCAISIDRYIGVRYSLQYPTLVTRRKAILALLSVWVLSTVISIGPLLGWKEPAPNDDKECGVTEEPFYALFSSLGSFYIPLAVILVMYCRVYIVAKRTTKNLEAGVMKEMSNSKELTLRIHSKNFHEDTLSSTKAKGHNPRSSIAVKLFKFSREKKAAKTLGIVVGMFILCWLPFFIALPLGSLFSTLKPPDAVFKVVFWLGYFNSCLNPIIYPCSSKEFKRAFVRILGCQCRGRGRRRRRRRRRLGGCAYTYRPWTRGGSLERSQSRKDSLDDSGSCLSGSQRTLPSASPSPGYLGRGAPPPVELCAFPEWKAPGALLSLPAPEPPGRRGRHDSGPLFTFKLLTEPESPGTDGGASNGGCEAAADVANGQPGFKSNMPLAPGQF
UniProt P25100, whole entry: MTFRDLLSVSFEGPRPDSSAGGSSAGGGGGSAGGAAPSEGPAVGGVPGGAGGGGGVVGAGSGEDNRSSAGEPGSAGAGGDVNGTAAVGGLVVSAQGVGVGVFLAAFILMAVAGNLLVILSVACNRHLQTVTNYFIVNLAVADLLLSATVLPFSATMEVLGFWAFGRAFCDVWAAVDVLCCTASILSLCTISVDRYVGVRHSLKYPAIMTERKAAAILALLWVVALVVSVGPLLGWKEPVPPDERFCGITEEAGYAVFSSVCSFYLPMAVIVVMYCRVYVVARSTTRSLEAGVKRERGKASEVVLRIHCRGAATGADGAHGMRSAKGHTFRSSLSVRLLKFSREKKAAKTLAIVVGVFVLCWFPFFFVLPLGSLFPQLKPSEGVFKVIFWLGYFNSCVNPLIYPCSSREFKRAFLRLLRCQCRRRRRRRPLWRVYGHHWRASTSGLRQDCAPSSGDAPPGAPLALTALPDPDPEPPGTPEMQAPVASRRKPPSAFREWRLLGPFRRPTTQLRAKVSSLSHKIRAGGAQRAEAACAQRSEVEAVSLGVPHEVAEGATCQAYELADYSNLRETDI

What all share (details): saturation binding
One test addresses T1, human α1A-AR (Homo sapiens, UniProt P35348).
T1 sequence (P35348 1-466): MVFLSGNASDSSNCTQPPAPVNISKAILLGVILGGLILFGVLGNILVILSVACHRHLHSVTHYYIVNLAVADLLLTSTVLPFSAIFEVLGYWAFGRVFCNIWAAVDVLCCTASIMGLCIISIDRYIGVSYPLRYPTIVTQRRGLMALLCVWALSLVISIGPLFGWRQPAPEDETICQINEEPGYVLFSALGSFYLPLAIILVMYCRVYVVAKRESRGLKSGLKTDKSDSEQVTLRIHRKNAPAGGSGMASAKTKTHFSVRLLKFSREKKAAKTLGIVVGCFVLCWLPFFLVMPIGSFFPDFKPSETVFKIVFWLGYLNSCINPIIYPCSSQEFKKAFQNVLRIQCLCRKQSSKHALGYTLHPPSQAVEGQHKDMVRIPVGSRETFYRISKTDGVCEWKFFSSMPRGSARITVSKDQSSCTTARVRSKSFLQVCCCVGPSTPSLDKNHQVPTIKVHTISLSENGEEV
Kind of test: Radioligand binding ([3H]prazosin) in HEK293 cells expressing human α1A-AR.

For the next test, the target named is human α1B-AR (Homo sapiens, UniProt P35368). Kind of test: Radioligand binding ([3H]prazosin) in HEK293 cells expressing human α1B-AR.
The next test deals with human α1D-AR (Homo sapiens, UniProt P25100). In words: Radioligand binding ([3H]prazosin) in HEK293 cells expressing human α1D-AR.

As for `COc1cc2nc(N3CCN(C(=O)c4ccco4)CC3)nc(N)c2cc1OC` [[^3H]prazosin], the “Bmax α1A” value at human α1A-AR was found to be 0.56±0.01 pmoles/mg protein. Further, the “Bmax α1B” value on human α1B-AR is listed as 1.59±0.10 pmoles/mg protein. Also, on human α1D-AR, the “Bmax α1D” value is listed as 0.46±0.04 pmoles/mg protein.
